Test results as given in PMC2818863 (Bioorganic & medicinal chemistry, 2009).

Protein sequences, listed by entry. Tags and fused reporters are not part of them. Residues count along the entry.
UniProt P05187, 23-506 limits assumed: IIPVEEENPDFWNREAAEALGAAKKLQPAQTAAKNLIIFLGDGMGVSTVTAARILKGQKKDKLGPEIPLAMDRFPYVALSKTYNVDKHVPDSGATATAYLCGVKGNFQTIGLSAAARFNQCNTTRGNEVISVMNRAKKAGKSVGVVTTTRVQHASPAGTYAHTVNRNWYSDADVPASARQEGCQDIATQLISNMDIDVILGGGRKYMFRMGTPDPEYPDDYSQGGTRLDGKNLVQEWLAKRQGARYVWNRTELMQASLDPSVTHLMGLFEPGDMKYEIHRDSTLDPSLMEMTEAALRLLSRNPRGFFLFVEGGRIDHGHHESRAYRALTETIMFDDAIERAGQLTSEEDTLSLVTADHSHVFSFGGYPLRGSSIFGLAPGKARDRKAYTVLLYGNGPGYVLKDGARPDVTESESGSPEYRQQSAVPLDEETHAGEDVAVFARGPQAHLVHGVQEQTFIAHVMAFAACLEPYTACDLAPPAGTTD

Key:
TNAP = molecular target: T1, TNAP (Homo sapiens, UniProt P05186); experiment: TNAP luminescent assay; assay type: biochemical; details: ratio IC50 TNAP / IC50 PLAP
T1 sequence (P05186 18-502 limits assumed): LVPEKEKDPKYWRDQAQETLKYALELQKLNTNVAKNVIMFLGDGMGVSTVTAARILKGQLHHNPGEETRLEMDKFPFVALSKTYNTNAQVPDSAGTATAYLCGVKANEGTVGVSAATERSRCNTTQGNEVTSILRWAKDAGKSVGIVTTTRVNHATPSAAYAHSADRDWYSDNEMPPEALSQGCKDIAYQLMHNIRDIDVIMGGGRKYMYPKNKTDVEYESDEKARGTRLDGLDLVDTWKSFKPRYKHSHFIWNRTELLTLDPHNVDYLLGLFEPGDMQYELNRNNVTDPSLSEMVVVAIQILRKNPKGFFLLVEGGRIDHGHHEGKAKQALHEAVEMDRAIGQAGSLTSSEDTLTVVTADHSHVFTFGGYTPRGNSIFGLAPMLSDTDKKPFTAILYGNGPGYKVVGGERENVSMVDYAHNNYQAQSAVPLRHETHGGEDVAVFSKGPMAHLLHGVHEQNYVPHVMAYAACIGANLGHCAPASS

PLAP = PLAP (Homo sapiens, UniProt P05187); experiment: PLAP luminescent assay; assay type: biochemical; details: PLAP potency (IC50), mean ± SD of three experiments; CDP-star 85 μM

SMILES	Selectivity (TNAP/PLAP) (TNAP) [fold]	IC50 (PLAP) [nM]
O=C(Cn1ccnc1-c1ccccc1)c1ccc(O)c(O)c1 [Compound 14]	> 6	–
Cc1nc2ccccc2n1CC(=O)c1ccc(O)c(O)c1 [Compound 20]	–	1200 ± 100
Cn1c(SCC(=O)c2ccc(O)c(O)c2)nnc1-c1ccccc1 [Compound 27]	–	6700

Now from value to compound:

Selectivity (TNAP/PLAP) (TNAP) [fold]	IC50 (PLAP) [nM]	SMILES
–	800 ± 50	O=C(Cn1cnc2ccccc21)c1ccc(O)c(O)c1 [Compound 17]
–	3000 ± 200	COc1ccc2c(c1OC)C(=O)OC2CC(=O)c1ccc(O)c(O)c1 (centres unmarked) [Compound 33]
